In patent US20060074046A1, “Oral administration of decitabine salt” (priority 2004, published 2006):

Key:
[1] = Hygroscopicity, weight gain in 1 week at relative humidity; assay type: physicochemical; conditions: solid state
[2] = 0.05 M phosphate buffer, 0.5 mg/mL, ambient

For decitabine citrate [Compound 12], which “Hygroscopicity-% weight gain in 1 week” value ([1]; 56% RH) is on record?
The value was 5.20%.

What about the “Hygroscopicity-% weight gain in 1 week” value ([1]; 98% RH) of the same substance?
The value was 7.03%.

What about the “Potency Found (%) At pH 2.5” value ([2]; t = 0.5 hr) of the same substance?
The value was 57.50%.

What about the “Potency Found (%) At pH 7.0” value ([2]; t = 0.5 hr) of the same substance?
Its value is 92.01%.

What about the “Potency Found (%) At pH 2.5” value ([2]; t = 24 hr) of the same substance?
The value was 50.64%.

And the “Potency Found (%) At pH 7.0” value ([2]; t = 24 hr)?
Its value is 88.35%.

With decitabine succinate [Compound 14] as the substance, how does the “Hygroscopicity-% weight gain in 1 week” value ([1]; 56% RH) read?
Its value is 5.56%.

And the “Hygroscopicity-% weight gain in 1 week” value ([1]; 98% RH)?
The value was 8.25%.

And the “Potency Found (%) At pH 2.5” value ([2]; t = 0.5 hr)?
The value was 62.81%.

And the “Potency Found (%) At pH 7.0” value ([2]; t = 0.5 hr)?
The value was 87.35%.

What about the “Potency Found (%) At pH 2.5” value ([2]; t = 24 hr) of the same substance?
Its value is 54.89%.

And the “Potency Found (%) At pH 7.0” value ([2]; t = 24 hr)?
Its value is 80.58%.

Like-named read-outs stand apart in the source and are kept apart here.
